Organism: Homo sapiens
Assay: Selectivity ratio of IC50 for HDAC8 catalytic domain (unknown origin) to IC50 for HDAC6 (unknown origin)

N#Cc1cccc(-c2cn(CCCCCn3cccc(O)c3=S)nn2)c1
Ratio IC50: 8
